Reference: ChEMBL document CHEMBL4828757, “Further hit optimization of 6-(trifluoromethyl)pyrimidin-2-amine based TLR8 modulators: Synthesis, biological evaluation and structure-activity relationships” (Eur J Med Chem, 2021)
Calls of active or inactive are those of the source. The calls are words filed in the database; no cut-off is given here.

Target: T1, Toll-like receptor 7 (Homo sapiens) (UniProt Q9NYK1)
T1 sequence (whole entry): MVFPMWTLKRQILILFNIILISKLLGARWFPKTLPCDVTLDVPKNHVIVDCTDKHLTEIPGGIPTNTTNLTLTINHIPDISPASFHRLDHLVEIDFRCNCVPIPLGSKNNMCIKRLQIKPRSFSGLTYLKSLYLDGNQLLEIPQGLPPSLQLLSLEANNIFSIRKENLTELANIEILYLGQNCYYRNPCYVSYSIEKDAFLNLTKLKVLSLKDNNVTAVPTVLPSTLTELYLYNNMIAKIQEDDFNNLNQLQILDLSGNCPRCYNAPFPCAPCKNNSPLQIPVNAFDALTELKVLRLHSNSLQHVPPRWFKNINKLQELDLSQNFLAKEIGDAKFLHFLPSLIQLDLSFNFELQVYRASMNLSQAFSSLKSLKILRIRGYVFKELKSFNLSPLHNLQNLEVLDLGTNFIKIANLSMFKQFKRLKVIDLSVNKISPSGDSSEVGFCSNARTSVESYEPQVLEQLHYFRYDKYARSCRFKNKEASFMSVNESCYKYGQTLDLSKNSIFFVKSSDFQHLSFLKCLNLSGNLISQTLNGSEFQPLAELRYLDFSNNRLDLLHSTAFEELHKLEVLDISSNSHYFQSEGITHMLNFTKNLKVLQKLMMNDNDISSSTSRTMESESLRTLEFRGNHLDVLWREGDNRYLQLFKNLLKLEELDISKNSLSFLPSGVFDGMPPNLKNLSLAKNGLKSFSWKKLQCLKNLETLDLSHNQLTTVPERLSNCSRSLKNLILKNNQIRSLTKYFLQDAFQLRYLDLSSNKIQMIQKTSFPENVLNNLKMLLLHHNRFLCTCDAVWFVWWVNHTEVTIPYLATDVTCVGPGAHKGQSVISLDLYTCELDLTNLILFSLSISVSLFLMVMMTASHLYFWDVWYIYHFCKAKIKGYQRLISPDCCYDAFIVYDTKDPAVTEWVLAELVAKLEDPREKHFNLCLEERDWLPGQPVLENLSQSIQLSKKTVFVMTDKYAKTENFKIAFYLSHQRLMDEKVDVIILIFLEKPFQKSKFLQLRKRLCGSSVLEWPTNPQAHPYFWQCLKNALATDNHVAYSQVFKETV
Assay: Negative modulator activity at human TLR7 expressed in HEK-Blue hTLR7 cells assessed as inhibition of CL075 stimulated NF-kappaB activation up to 25 uM preincubated for 1 hr followed by CL075 stimulation for 24 hrs by SEAP-based colorimetric assay
Format: cell-based
Details: filed as modulator, dose microM <=25, time 25.0 hrs

For CS(=O)(=O)c1nc(-c2ccco2)cc(C(F)(F)F)n1, the inhibition was “Active”.
With OCc1ccc(CNc2nc(-c3ccco3)cc(C(F)(F)F)n2)cc1 the inhibition was “Active”.
